# Measurements from article PMC4980837 (Archiv der Pharmazie, 2013).
# Target: recombinant human PDE5 (Homo sapiens, UniProt O76074)
# Assay: PDE5 inhibition, IMAP FP phosphodiesterase assay
# Assay type: biochemical
# Settings: read-out: PDE5 % inhibition at 10 μm
smiles,measurement,value
"CCN1C(=O)[C@@H]2Cc3c([nH]c4ccccc34)[C@@H](c3ccc(Br)s3)N2C1=O [Compound 8, (5S,11aS) 5-(5-Bromo-2-thienyl)-2-ethyl-5,6,11,11a-tetrahydro-1H-imidazo[1′,5 ′:1,6]pyrido[3,4-b]indole-1,3(2H)-dione]",inhibition at 10 µM,99%
